The results in this text go back to patent publication US20250049928A1, “ANESTHETIC PRODRUGS AND DERIVATIVES THEREOF FOR PROLONGED SENSORY SELECTIVE NERVE BLOCKAGE” (The Board of Trustees of The University of Alabama, priority 2023, published 2025).

For the series the following is noted: buffer.

As for “galacturonic acid-capsaicin prodrug [GalA-CAP prodrug]”, the Half-lives worked out at 111.8 h.
The substance “glycine-capsaicin prodrug [Gly-CAP prodrug]” gave a Half-lives of 49.5 h.
